In patent US20050260730A1, “CDK2/cyclin A crystals and uses thereof” (priority 2003, published 2005) one finds potency decrease and IC50 data, which are given here for 2 compounds.

The term IC50 denotes the concentration that inhibits the measured activity by half. Read a high IC50 as lower potency.

One assay addresses cyclin A (Homo sapiens, UniProt P20248). In words: Competitive cyclin A binding assay.
A further assay concerns the target CDK2/cyclin A (Homo sapiens, UniProt P20248). In words: CDK2/cyclin A kinase activity assay. In kind it is biochemical.

As for `CC(C)C[C@H](NC(=O)[C@H](CCCNC(=N)N)NC(=O)[C@@H](N)CCCNC(=N)N)C(=O)N[C@@H](Cc1ccccc1)C(N)=O` [SEQ ID NO: 20, H-Arg-Arg-Leu-Phe-NH2], the potency decrease entry at cyclin A (relative to the unmodified parent peptide (Table 2)) is reported as “more than 10 fold”.
With `CC(C)C[C@H](NC(=O)[C@H](CCCNC(N)=O)NC(=O)[C@@H](N)CCCNC(N)=O)C(=O)N[C@@H](C)C(=O)N[C@@H](Cc1ccc(F)cc1)C(N)=O` [SEQ ID NO: 27, H-Cit-Cit-Leu-Ala-(p-F-Phe)-NH2], the IC50 worked out at 12 µM at CDK2/cyclin A and 79 µM at cyclin A.
